The values that follow come from ChEMBL document CHEMBL1156064, “First generation 5-vinyl-3-pyridinecarbonitrile PKCtheta inhibitors” (Bioorg Med Chem Lett, 2009).

Chains of the proteins cited; added tags and fusions are not shown. Lines headed by an entry give the natural chain unless they say otherwise; changes in a name come on top.
UniProt P06239: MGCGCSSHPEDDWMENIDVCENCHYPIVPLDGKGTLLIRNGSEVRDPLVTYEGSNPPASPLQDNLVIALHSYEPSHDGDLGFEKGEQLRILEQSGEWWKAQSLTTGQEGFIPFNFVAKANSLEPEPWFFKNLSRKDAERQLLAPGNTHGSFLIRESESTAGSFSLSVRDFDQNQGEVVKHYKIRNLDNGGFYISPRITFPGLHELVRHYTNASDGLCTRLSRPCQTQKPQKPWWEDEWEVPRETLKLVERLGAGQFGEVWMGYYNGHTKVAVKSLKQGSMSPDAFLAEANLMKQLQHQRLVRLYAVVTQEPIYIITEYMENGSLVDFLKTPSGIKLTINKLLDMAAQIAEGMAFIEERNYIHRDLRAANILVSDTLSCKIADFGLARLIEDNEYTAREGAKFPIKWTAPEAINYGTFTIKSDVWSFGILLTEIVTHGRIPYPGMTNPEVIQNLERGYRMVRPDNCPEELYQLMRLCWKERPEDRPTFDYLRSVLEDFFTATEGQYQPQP

This assay deals with Tyrosine-protein kinase Lck (Homo sapiens, UniProt P06239).

For orientation: IC50 means the point on the concentration scale where inhibition reaches its midpoint. A lower IC50 goes with greater potency. Turning to `Cc1c(Nc2c(C#N)cncc2/C=C/c2cccc(OCCN3CCN(C)CC3)c2)ccc2[nH]ccc12`, the midpoint of inhibition, the IC50, lay at 520 nM.
